Results from article PMC6150365, “Simultaneous Determination of Seven Components in Rat Plasma by the UPLC-MS/MS Method and Application of Pharmacokinetic Studies to SimiaoYong’an Decoction” (Molecules : A Journal of Synthetic Chemistry and Natural …, 2017).

Test: Pharmacokinetic study in rats after oral administration of SYD extract and its single and combined TCM extracts (UPLC-MS/MS of plasma)
Conditions: n = 6
[1] = rat plasma, oral LJ + SN + AS extract 5.43 g/kg
[2] = rat plasma, oral LJ + SN + GU extract 4.73 g/kg
[3] = rat plasma, oral LJ + SN extract
[4] = rat plasma, oral SN + AS + GU extract 4.28 g/kg
[5] = rat plasma, oral SN + AS extract
[6] = rat plasma, oral SN + GU extract
[7] = rat plasma, oral SN extract 2.49 g/kg
[8] = rat plasma, oral SYD extract 8.25 g/kg

## C[C@]1(OC(=O)/C=C/c2ccccc2)C[C@@H](O)[C@]2(O)C=CO[C@@H](O[C@@H]3O[C@H](CO)[C@@H](O)[C@H](O)[C@H]3O)[C@@H]21 [Harpagoside, harpagoside]
male, Sprague-Dawley, rat, plasma, po, 3.98 g·kg^−1, Tmax, oral SN + AS extract
  Tmax: 1.42 ± 0.38 h
male, Sprague-Dawley, rat, plasma, po, 4.5 g·kg^−1 (extract), Tmax, oral LJ + SN extract
  Tmax: 1.67 ± 0.41 h

## COC(=O)C1=CO[C@@H](O[C@@H]2O[C@H](CO)[C@@H](O)[C@H](O)[C@H]2O)[C@@H]2[C@@H](C)[C@@H](O)C[C@H]12 [Loganin, loganin]
male, Sprague-Dawley, rat, plasma, po, 8.25 g/kg, Tmax, oral SYD extract 8.25 g/kg
  Tmax: 1.42 ± 0.38 h

## harpagide
[1]
  AUC(0–t): 1580 ± 190 ng·h/mL
  AUC(0–∞): 2620 ± 1830 ng·h/mL
  Cmax: 600 ± 120 ng/mL
  MRT(0–t): 4.82 ± 0.56 h
  MRT(0–∞): 52.09 ± 101.60 h
  Tmax: 1.58 ± 0.20 h
  t1/2: 6.30 ± 0.99 h
[2]
  AUC(0–t): 1450 ± 260 ng·h/mL
  AUC(0–∞): 2670 ± 1810 ng·h/mL
  Cmax: 620 ± 110 ng/mL
  MRT(0–t): 5.12 ± 0.59 h
  MRT(0–∞): 62.09 ± 10.74 h
  Tmax: 1.58 ± 0.20 h
  t1/2: 8.34 ± 1.93 h
[3]
  AUC(0–t): 1410 ± 170 ng·h/mL
  AUC(0–∞): 2500 ± 1860 ng·h/mL
  Cmax: 590 ± 110 ng/mL
  MRT(0–t): 5.18 ± 0.19 h
  MRT(0–∞): 55.30 ± 10.97 h
  Tmax: 1.17 ± 0.26 h
  t1/2: 7.14 ± 0.84 h
[4]
  AUC(0–t): 1720 ± 220 ng·h/mL
  AUC(0–∞): 2760 ± 1820 ng·h/mL
  Cmax: 750 ± 150 ng/mL
  MRT(0–t): 4.58 ± 0.49 h
  MRT(0–∞): 50.90 ± 99.45 h
  Tmax: 1.67 ± 0.26 h
  t1/2: 7.12 ± 2.34 h
[5]
  AUC(0–t): 1610 ± 330 ng·h/mL
  AUC(0–∞): 2760 ± 1690 ng·h/mL
  Cmax: 550 ± 150 ng/mL
  MRT(0–t): 5.17 ± 0.62 h
  MRT(0–∞): 58.81 ± 10.17 h
  Tmax: 1.67 ± 0.41 h
  t1/2: 7.93 ± 2.55 h
[6]
  AUC(0–t): 1160 ± 150 ng·h/mL
  AUC(0–∞): 2390 ± 1850 ng·h/mL
  Cmax: 350 ± 120 ng/mL
  MRT(0–t): 5.98 ± 0.42 h
  MRT(0–∞): 65.43 ± 10.77 h
  Tmax: 1.42 ± 0.38 h
  t1/2: 8.79 ± 2.77 h
[7]
  AUC(0–t): 2770 ± 340 ng·h/mL
  AUC(0–∞): 2940 ± 370 ng·h/mL
  Cmax: 1120 ± 120 ng/mL
  MRT(0–t): 4.26 ± 0.46 h
  MRT(0–∞): 6.39 ± 2.61 h
  Tmax: 1.00 ± 0.00 h
  t1/2: 6.70 ± 2.94 h
[8]
  AUC(0–t): 1570 ± 250 ng·h/mL
  AUC(0–∞): 2610 ± 1730 ng·h/mL
  Cmax: 670 ± 160 ng/mL
  MRT(0–t): 4.92 ± 0.56 h
  Tmax: 2.00 ± 0.00 h
  t1/2: 7.72 ± 1.78 h
